# Source: US5011853A, “Compounds for treatment of cholinergic neurotoxins” (dated 1991)
# Key:
# M1 receptors (brain) = details: source Freedman et al 1988, cited from earlier work; for M1/M2 RATIO: ratio of 1/Kapp M1 (brain) to M2 (heart); for 1/Kapp M1 (brain): relative affinity
# M2 receptors (heart) = details: relative affinity; source Freedman et al 1988; cited from earlier work
# [1] = system: lithium-pilocarpine seizures; experiment: Lithium-pilocarpine assay using post-treatment (protection against lithium-pilocarpine seizures and brain damage); details: for ED50, protection against lithium-pilocarpine seizures: dose preventing seizure activity and neurotoxic damage in 50% of rats, given after onset of convulsions, lithium chloride 3 meq/kg sc, pilocarpine 30 mg/kg ip 24 h later, 4 h observation
# [2] = system: cingulate/retrosplenial neurons; experiment: Prevention of adverse side effects caused by NMDA antagonists in cingulate/retrosplenial neurons; details: including vacuole formation and mitochondrial dissolution in cingulate/retrosplenial neurons
# pilocarpine seizures = details: administered prior to the pilocarpine; Honchar et al 1983; cited from earlier work
Structure (SMILES),M1/M2 RATIO (M1 receptors (brain)),1/Kapp M1 (brain) (M1 receptors (brain)),1/Kapp M2 (heart) (M2 receptors (heart)),"ED50, protection against lithium-pilocarpine seizures [1]","EEG-recordable seizure activity ([1]; entire 4 hour observation period, EEG studied with lithium-pilocarpine (or soman, Example 2))",prevention of adverse side effects caused by NMDA antagonists [2],degree of protection against seizures induced by pilocarpine (pilocarpine seizures)
OC(CCN1CCCCC1)(c1ccccc1)C1CCCCC1 (stereo not drawn),13,0.45,0.03,2.5 mg/kg,,,
OC(CCN1CCCC1)(c1ccccc1)C1CCCCC1 (stereo not drawn),,,,8.3 mg/kg,completely blocked EEG-recordable seizure activity,,
CCN(CC)CCOC(=O)C(O)(c1ccccc1)c1ccccc1,,,,4.2 mg/kg,,effective,
OC(CCN1CCCCC1)(c1ccccc1)C1CC2C=CC1C2 (stereo not drawn),18,0.83,0.04,4.5 mg/kg,,,
CN1[C@@H]2CC[C@H]1C[C@@H](OC(c1ccccc1)c1ccccc1)C2,18,1.14,0.07,4.5 mg/kg,,effective,
CN1C2CC(OC(=O)C(CO)c3ccccc3)CC1C1OC12 (stereo not drawn),,,0.20,,,effective,
CN1C2CCC1CC(OC(=O)C(CO)c1ccccc1)C2 (racemic),2.1,0.63,0.29,22.9 mg/kg,,,limited degree of protection
